Source: patent US20210221866A1, “PROTEASE-RESISTANT LIPIDATED GLP-1 ANALOGS” (MEDIMMUNE LIMITED, priority 2015, published 2021)

Chains of the proteins cited; added tags and fusions are not shown. Residues count along the entry.
UniProt P43220, 24-463: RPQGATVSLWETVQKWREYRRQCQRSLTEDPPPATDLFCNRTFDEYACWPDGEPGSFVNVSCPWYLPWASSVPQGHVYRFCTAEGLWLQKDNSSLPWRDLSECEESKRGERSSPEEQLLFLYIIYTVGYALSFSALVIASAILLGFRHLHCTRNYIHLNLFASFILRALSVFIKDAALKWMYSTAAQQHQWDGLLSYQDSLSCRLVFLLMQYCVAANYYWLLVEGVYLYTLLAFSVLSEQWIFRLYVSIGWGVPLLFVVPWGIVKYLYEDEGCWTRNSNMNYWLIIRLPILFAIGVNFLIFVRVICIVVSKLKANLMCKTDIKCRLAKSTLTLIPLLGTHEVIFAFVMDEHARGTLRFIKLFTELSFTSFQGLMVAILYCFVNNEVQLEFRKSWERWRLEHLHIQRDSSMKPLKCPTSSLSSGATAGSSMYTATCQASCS

Molecular target: T1, human GLP-1 receptor (GLP-1R) (Homo sapiens, UniProt P43220)
T1 construct: expressed in transfected cells; host or cells: HEK293 cells or CHO cells
Assay: cAMP assay, human GLP-1R cells
Format: cell-based
Procedure: Sample dilutions are made in duplicate.
A frozen cryo-vial of cells expressing the receptor of interest is thawed rapidly in a water-bath, transferred to pre-warmed assay buffer and spun at 240×g for 5 minutes. Cells are re-suspended in assay buffer at a batch-dependent optimized concentration (e.g. hGCGR cells at 2×10^5 cells/ml, hGLP-1R and hGIPR cells at 1×10^5 cells/ml).
To this, 5 μL cell suspension is added and the plates incubated at room temperature for 30 minutes.
cAMP levels are measured using a commercially available cAMP dynamic 2 HTRF kit (Cisbio, Cat #62AM4PEJ), following the two step protocol as per manufacturer's recommendations. In brief; anti-cAMP cryptate (donor fluorophore) and cAMP-d2 (acceptor fluorophore) are made up separately by diluting each 1/20 in conjugate & lysis buffer provided in the kit. 5 μL anti-cAMP cryptate is added to wells of the assay plate, and 5 μL cAMP-d2 is added to wells except non-specific binding (NSB) wells, to which conjugate and lysis buffer are added. […] EC50 values of the synthetic peptides determined in cAMP assays are then determined.
Data is transformed to % Delta F as described in the manufacturer's guidelines and analyzed by 4-parameter logistic fit to determine EC50 values. […] To compare the balance of activities at the GLP-1R and GCGR between different peptides and across different conditions, these can be correlated, where the EC50's are related to those of comparator peptides.

Which EC50 (Primary assay EC50 GLP-1R n1, Table 11, tris-lipidated peptides, replicate n1) does the source give for `CCCCCCCCCCCC(=O)N[C@@H](CCC(=O)NCCOCCOCC(=O)NCCOCCOCC(=O)NCCCC[C@H](NC(=O)[C@H](CCC(=O)O)NC(=O)[C@H](CC(C)C)NC(=O)[C@H](Cc1ccc(O)cc1)NC(=O)[C@H](CO)NC(=O)[C@H](CO)NC(=O)[C@H](CCCCNC(=O)COCCOCCNC(=O)COCCOCCNC(=O)CC[C@H](NC(=O)CCCCCCCCCCC)C(=O)O)NC(=O)[C@H](CC(=O)O)NC(=O)[C@H](CO)NC(=O)[C@@H](NC(=O)[C@](C)(Cc1ccccc1)NC(=O)[C@H](CO)NC(=O)CNC(=O)[C@H](CCC(=O)O)NC(=O)C(C)(C)NC(=O)[C@@H](N)Cc1c[nH]cn1)[C@@H](C)O)C(=O)N[C@@H](CCC(=O)O)C(=O)N[C@@H](C)C(=O)N[C@@H](C)C(=O)N[C@@](C)(CCCCN)C(=O)N[C@@H](CCC(=O)O)C(=O)N[C@@H](Cc1ccccc1)C(=O)N[C@H](C(=O)N[C@@H](CCCCNC(=O)COCCOCCNC(=O)COCCOCCNC(=O)CC[C@H](NC(=O)CCCCCCCCCCC)C(=O)O)C(=O)N[C@@H](Cc1ccccc1)C(=O)N[C@H](C(=O)N[C@H](C(=O)N[C@@H](CCC(=O)O)C(=O)NCC(=O)NCC(N)=O)C(C)C)C(C)C)[C@@H](C)CC)C(=O)O` [compound 439] here?
Its EC50 is 59.9 pM.

What about the EC50 (Primary assay EC50 GLP-1R n2, Table 11, tris-lipidated peptides, replicate n2) of the same compound?
Its EC50 is 134 pM.

And the EC50 (Primary assay EC50 Mean pM GLP-1R, Table 11, tris-lipidated peptides, mean of n1 and n2)?
Its EC50 is 97 pM.
